# From US9302989B2 (priority 2010, dated 2016)
# Amino acid sequences for entries named in this document (tags omitted). A change or cut given only in a name is not applied to a line headed by its entry.
# UniProt P43490: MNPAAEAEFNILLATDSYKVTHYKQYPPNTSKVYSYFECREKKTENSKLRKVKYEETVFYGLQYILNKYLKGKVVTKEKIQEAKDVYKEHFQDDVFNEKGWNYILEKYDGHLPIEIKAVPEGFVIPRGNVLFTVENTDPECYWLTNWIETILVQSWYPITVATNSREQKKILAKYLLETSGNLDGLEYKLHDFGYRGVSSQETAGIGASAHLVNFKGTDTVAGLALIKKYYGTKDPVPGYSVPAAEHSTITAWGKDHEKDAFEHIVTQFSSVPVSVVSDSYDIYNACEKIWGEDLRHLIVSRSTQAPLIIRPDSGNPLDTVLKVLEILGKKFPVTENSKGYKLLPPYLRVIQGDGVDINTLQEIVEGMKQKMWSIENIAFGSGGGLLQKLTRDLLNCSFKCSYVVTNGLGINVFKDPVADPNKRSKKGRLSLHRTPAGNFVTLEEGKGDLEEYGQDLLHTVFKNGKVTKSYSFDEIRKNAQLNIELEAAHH
# Target: NAMPT (Homo sapiens (Human), UniProt P43490)
# Details: read-out: TR-FRET Binding IC50 (μM) probe 1
row,Compound,IC50 [µM]
1,"Cc1ccc2c(c1)CN(C(=O)Nc1ccc(C(=O)NCCCc3ccccc3)cc1)C2 [Example 137, 5-methyl-N-{4-[(3-phenylpropyl)carbamoyl]phenyl}-1,3-dihydro-2H-isoindole-2-carboxamide]",0.0629
2,"O=C(CN1CCOCC1)N1CCN(c2ccc(NC(=O)N3Cc4ccccc4C3)cc2)CC1 [Example 541, N-{4-[4-(morpholin-4-ylacetyl)piperazin-1-yl]phenyl}-1,3-dihydro-2H-isoindole-2-carboxamide]",0.225
3,"O=C(Nc1ccc(C2=CCN(C(=O)c3cccnn3)CC2)cc1)N1Cc2ccccc2C1 [Example 489, N-{4-[1-(pyridazin-3-ylcarbonyl)-1,2,3,6-tetrahydropyridin-4-yl]phenyl}-1,3-dihydro-2H-isoindole-2-carboxamide]",0.0123
4,"CCCN(CCOC)C(=O)c1ccc(NC(=O)N2Cc3ccccc3C2)cc1 [Example 238, N-{4-[(2-methoxyethyl)(propyl)carbamoyl]phenyl}-1,3-dihydro-2H-isoindole-2-carboxamide]",0.504
5,"O=C(NCCCCC1CCNCC1)N1Cc2ccccc2C1 [Example 352, N-[4-(piperidin-4-yl)butyl]-1,3-dihydro-2H-isoindole-2-carboxamide]",1.19
6,"O=C(Nc1ccc(CCCCCc2ccccc2)cc1)N1Cc2ccccc2C1 [Example 327, N-[4-(5-phenylpentyl)phenyl]-1,3-dihydro-2H-isoindole-2-carboxamide]",0.223
7,"O=C(NCCCN1CCOCC1)c1ccc(NC(=O)N2Cc3ccccc3C2)cc1 [Example 196, N-(4-{[3-(morpholin-4-yl)propyl]carbamoyl}phenyl)-1,3-dihydro-2H-isoindole-2-carboxamide]",0.176
8,"CCOCC(=O)Nc1ccc(NC(=O)N2Cc3ccccc3C2)cc1 [Example 308, N-{4-[(ethoxyacetyl)amino]phenyl}-1,3-dihydro-2H-isoindole-2-carboxamide]",0.0808
9,"O=C(Nc1cccc(O)c1)c1ccc(NC(=O)N2Cc3ccccc3C2)cc1 [Example 182, N-{4-[(3-hydroxyphenyl)carbamoyl]phenyl}-1,3-dihydro-2H-isoindole-2-carboxamide]",0.136
10,"O=C(NCCc1ccc(C(F)(F)F)cc1)c1ccc(NC(=O)N2Cc3ccccc3C2)cc1 [Example 237, N-[4-({2-[4-(trifluoromethyl)phenyl]ethyl}carbamoyl)phenyl]-1,3-dihydro-2H-isoindole-2-carboxamide]",0.46
11,"O=C(NCCc1ccccc1)c1ccc(NC(=O)N2Cc3ccccc3C2)cc1 [Example 139, N-{4-[(2-phenylethyl)carbamoyl]phenyl}-1,3-dihydro-2H-isoindole-2-carboxamide]",0.0638
12,"CC(C)(C)OC(=O)N1CCN(c2ccc(NC(=O)N3Cc4ccccc4C3)cc2)CC1 [Example 341, tert-butyl 4-{4-[(1,3-dihydro-2H-isoindol-2-ylcarbonyl)amino]phenyl}piperazine-1-carboxylate]",0.101
13,"O=C(CC1CCCC1)Nc1ccc(NC(=O)N2Cc3ccccc3C2)cc1 [Example 311, N-{4-[(cyclopentylacetyl)amino]phenyl}-1,3-dihydro-2H-isoindole-2-carboxamide]",0.00524
14,"CCOCCC(=O)Nc1ccc(NC(=O)N2Cc3ccccc3C2)cc1 [Example 292, N-{4-[(3-ethoxypropanoyl)amino]phenyl}-1,3-dihydro-2H-isoindole-2-carboxamide]",0.0361
15,"N#Cc1ccc2c(c1)CN(C(=O)Nc1ccc(C(=O)N3CCN(c4ccccn4)CC3)cc1)C2 [Example 7, 5-cyano-N-(4-{[4-(pyridin-2-yl)piperazin-1-yl]carbonyl}phenyl)-1,3-dihydro-2H-isoindole-2-carboxamide]",0.0046
16,"CC(C)C(=O)N1Cc2ccc(NC(=O)N3Cc4ccccc4C3)cc2C1 [Example 345, N-(2-isobutyryl-2,3-dihydro-1H-isoindol-5-yl)-1,3-dihydro-2H-isoindole-2-carboxamide]",0.84
17,"CC1CCCN1C(=O)c1ccc(NC(=O)N2Cc3ccccc3C2)cc1 (centres unmarked) [Example 254, N-{4-[(2-methylpyrrolidin-1-yl)carbonyl]phenyl}-1,3-dihydro-2H-isoindole-2-carboxamide]",0.877
18,"CC(=O)N1CCN(c2nc3cc(NC(=O)N4Cc5ccccc5C4)ccc3[nH]2)CC1 [Example 455, N-[2-(4-acetylpiperazin-1-yl)-1H-benzimidazol-5-yl]-1,3-dihydro-2H-isoindole-2-carboxamide]",12.2
19,"CC1CN(C(=O)c2ccc(NC(=O)N3Cc4ccccc4C3)cc2)CC(C)O1 (centres unmarked) [Example 257, N-{4-[(2,6-dimethylmorpholin-4-yl)carbonyl]phenyl}-1,3-dihydro-2H-isoindole-2-carboxamide]",1.36
20,"O=C(NCC1CCOCC1)c1ccc(NC(=O)N2Cc3ccccc3C2)cc1 [Example 421, N-{4-[(tetrahydro-2H-pyran-4-ylmethyl)carbamoyl]phenyl}-1,3-dihydro-2H-isoindole-2-carboxamide]",0.0404
21,"O=C(NCCCc1ccccc1)c1ccc(NC(=O)N2Cc3ccccc3C2)cc1 [Example 1, N-{4-[(3-phenylpropyl)carbamoyl]phenyl}-1,3-dihydro-2H-isoindole-2-carboxamide]",0.0125

row,Compound,IC50 [µM]
1,"CC(C)CCn1cc(NC(=O)c2ccc(NC(=O)N3Cc4ccc(F)cc4C3)cc2)cn1 [Example 17, 5-fluoro-N-(4-{[1-(3-methylbutyl)-1H-pyrazol-4-yl]carbamoyl}phenyl)-1,3-dihydro-2H-isoindole-2-carboxamide]",0.0105
2,"COc1ccc2c(c1)CN(C(=O)Nc1ccc(C(=O)NCCCc3ccccc3)cc1)C2 [Example 37, 5-methoxy-N-{4-[(3-phenylpropyl)carbamoyl]phenyl}-1,3-dihydro-2H-isoindole-2-carboxamide]",0.0161
3,"O=C(NCCOc1ccccc1)c1ccc(NC(=O)N2Cc3ccccc3C2)cc1 [Example 133, N-{4-[(2-phenoxyethyl)carbamoyl]phenyl}-1,3-dihydro-2H-isoindole-2-carboxamide]",0.0582
4,"O=C(NCc1ccc(Cl)cc1)c1ccc(NC(=O)N2Cc3ccccc3C2)cc1 [Example 38, N-{4-[(4-chlorobenzyl)carbamoyl]phenyl}-1,3-dihydro-2H-isoindole-2-carboxamide]",0.0164
5,"O=C(NC[C@@H]1CCOC1)c1ccc(NC(=O)N2Cc3ccccc3C2)cc1 [Example 411, N-(4-{[(3S)-tetrahydrofuran-3-ylmethyl]carbamoyl}phenyl)-1,3-dihydro-2H-isoindole-2-carboxamide]",0.0197
6,"COCCOCC(=O)Nc1ccc(NC(=O)N2Cc3ccccc3C2)cc1 [Example 309, N-(4-{[(2-methoxyethoxy)acetyl]amino}phenyl)-1,3-dihydro-2H-isoindole-2-carboxamide]",0.0634
7,"CCCNC(=O)c1ccc(NC(=O)N2Cc3ccc(C(=O)NCCN(C)C)cc3C2)cc1 [Example 559, N^5-[2-(dimethylamino)ethyl]-N^2-[4-(propylcarbamoyl)phenyl]-1,3-dihydro-2H-isoindole-2,5-dicarboxamide]",1.98
8,"N#CCCN(C(=O)c1ccc(NC(=O)N2Cc3ccccc3C2)cc1)C1CC1 [Example 263, N-{4-[(2-cyanoethyl)(cyclopropyl)carbamoyl]phenyl}-1,3-dihydro-2H-isoindole-2-carboxamide]",1.66
9,"CC(C)S(=O)(=O)N1CC=C(c2ccc(NC(=O)N3Cc4ccccc4C3)cc2)CC1 [Example 333, N-{4-[1-(isopropylsulfonyl)-1,2,3,6-tetrahydropyridin-4-yl]phenyl}-1,3-dihydro-2H-isoindole-2-carboxamide]",0.00315
10,"CNC(=O)c1ccc(NC(=O)N2Cc3ccccc3C2)cc1 [Example 227, N-[4-(methylcarbamoyl)phenyl]-1,3-dihydro-2H-isoindole-2-carboxamide]",0.359
11,"CCCOCCNC(=O)c1ccc(NC(=O)N2Cc3ccccc3C2)cc1 [Example 107, N-{4-[(2-propoxyethyl)carbamoyl]phenyl}-1,3-dihydro-2H-isoindole-2-carboxamide]",0.0408
12,"CC(C)CNC(=O)c1ccc(NC(=O)N2Cc3ccccc3C2)cc1 [Example 120, N-[4-(isobutylcarbamoyl)phenyl]-1,3-dihydro-2H-isoindole-2-carboxamide]",0.049
13,"O=C(Nc1ccc(-c2noc(Cc3ccccc3)n2)cc1)N1Cc2ccccc2C1 [Example 409, N-[4-(5-benzyl-1,2,4-oxadiazol-3-yl)phenyl]-1,3-dihydro-2H-isoindole-2-carboxamide]",1.02
14,"O=C(CCc1ccccc1)Nc1ccc(NC(=O)N2Cc3ccccc3C2)cc1 [Example 296, N-{4-[(3-phenylpropanoyl)amino]phenyl}-1,3-dihydro-2H-isoindole-2-carboxamide]",0.0247
15,"CC(C)CCn1cc(NC(=O)c2ccc(NC(=O)N3Cc4ccccc4C3)cc2)cn1 [Example 63, N-(4-{[1-(3-methylbutyl)-1H-pyrazol-4-yl]carbamoyl}phenyl)-1,3-dihydro-2H-isoindole-2-carboxamide]",0.0236
16,"O=C(Nc1ccc(F)cn1)c1ccc(NC(=O)N2Cc3ccccc3C2)cc1 [Example 211, N-{4-[(5-fluoropyridin-2-yl)carbamoyl]phenyl}-1,3-dihydro-2H-isoindole-2-carboxamide]",0.241
17,"CCn1cc(NC(=O)c2ccc(NC(=O)N3Cc4ccccc4C3)cc2)cn1 [Example 156, N-{4-[(1-ethyl-1H-pyrazol-4-yl)carbamoyl]phenyl}-1,3-dihydro-2H-isoindole-2-carboxamide]",0.0836
18,"O=C(NCCCc1ccccc1)c1ccc(NC(=O)N2Cc3ccncc3C2)cc1 [Example 288, N-{4-[(3-phenylpropyl)carbamoyl]phenyl}-1,3-dihydro-2H-pyrrolo[3,4-c]pyridine-2-carboxamide]",0.00447
19,"CC(C)C(=O)N1CC=C(c2ccc(NC(=O)N3Cc4ccccc4C3)cn2)CC1 [Example 334, N-(1′-isobutyryl-1′,2′,3′,6′-tetrahydro-2,4′-bipyridin-5-yl)-1,3-dihydro-2H-isoindole-2-carboxamide]",0.0223
20,"O=C(Nc1ccc(-c2cnn(CCO)c2)cc1)N1Cc2ccccc2C1 [Example 324, N-{4-[1-(2-hydroxyethyl)-1H-pyrazol-4-yl]phenyl}-1,3-dihydro-2H-isoindole-2-carboxamide]",0.333
